{"source": "patent US12622906B2", "about": "“Treatment and prognosis of pancreatic cancer” (Cambridge Enterprise Limited, priority 2019, dated 2026)", "key": {"CCR1 expression": {"system": "CCR1 expression", "assay": "CCR1 expression in PDAC cells after prolonged co-culture with BMDM (qRT-PCR, flow cytometry)", "assay_type": "cell-based, murine"}, "PDAC tumours": {"system": "PDAC tumours", "assay": "Initial pilot experiments in KPC Band B mice, tumour staining", "assay_type": "in vivo", "settings": "10 days, compared with vehicle control"}, "PDAC mesenchymal cells": {"system": "PDAC mesenchymal cells", "settings": "mouse, in vivo"}, "IGF1 signalling pathway [1]": {"system": "IGF1 signalling pathway"}, "IGF1 signalling pathway [2]": {"system": "IGF1 signalling pathway", "remark": "listed apart in the source"}}}
{"compound": "C[C@@H]1CN(Cc2ccc(F)cc2)CCN1C(=O)COc1ccc(Cl)cc1NC(N)=O", "note": "[BX-471, (2R)-1-[[2-[(Aminocarbonyl)amino]-4-chlorophenoxy]acetyl]-4-[(4-fluorophenyl)methyl]-2-methylpiperazine]", "values": [{"measurement": "induction of CCR1 expression due to prolonged co-culture", "setting": "CCR1 expression", "value": "blunting the induction of CCR1 expression"}, {"measurement": "collagen deposition / tumour microenvironment morphology (collagen VI stain)", "setting": "PDAC tumours", "value": "altered morphology of the PDAC tumour microenvironment"}, {"measurement": "overall survival", "setting": "PDAC mesenchymal cells", "value": "prolonged overall survival"}, {"measurement": "activation and expression profiles of AKT and 4E-BP1 following recombinant IGF1 treatment", "setting": "IGF1 signalling pathway [1]", "value": "particularly blunted"}, {"measurement": "upregulation of IGF1 family genes with recombinant IGF1", "setting": "IGF1 signalling pathway [2]", "value": "severely blunted this upregulation"}]}
